From PMC7919060 (ACS chemical neuroscience, 2020)

Assays:
P-glycoprotein (MDR1) = assay: Permeability and efflux in MDR1-MDCK cell monolayer; type: in vitro ADME; details: dog
GlcCer synthase [1] = target: T1, GlcCer synthase (Canis lupus familiaris, UniProt A0A8I3MXG6); assay: Broken cell; type: biochemical, canine
T1 sequence (A0A8I3MXG6 1-394): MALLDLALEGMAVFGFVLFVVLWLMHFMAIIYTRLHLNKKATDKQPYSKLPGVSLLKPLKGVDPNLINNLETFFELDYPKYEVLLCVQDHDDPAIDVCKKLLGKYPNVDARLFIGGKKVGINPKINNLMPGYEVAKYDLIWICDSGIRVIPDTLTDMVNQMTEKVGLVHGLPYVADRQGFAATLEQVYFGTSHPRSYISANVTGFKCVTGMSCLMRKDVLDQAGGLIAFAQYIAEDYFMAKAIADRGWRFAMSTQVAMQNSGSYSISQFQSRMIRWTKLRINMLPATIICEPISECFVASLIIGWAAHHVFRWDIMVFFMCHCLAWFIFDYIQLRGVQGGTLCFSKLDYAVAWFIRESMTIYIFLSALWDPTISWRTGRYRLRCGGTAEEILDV

GlcCer synthase [2] = target: T1, GlcCer synthase; assay: MDCK cell assay for reduction in glucosylceramide; type: cell-based, canine

Compound | efflux ratio (P-glycoprotein (MDR1)) | IC50 (GlcCer synthase [1]) [nM] | IC50 (GlcCer synthase [2]) [nM]
CC(C)(NC(=O)O[C@@H]1CN2CCC1CC2)c1csc(-c2ccc(F)cc2)n1 [Compound 3, reference compound] | 84 | 240 | 37
COc1ccc([C@@H](O)[C@@H](CN2CCCC2)NC(=O)CC2Cc3ccccc3C2)cc1F [Compound 15, 2-(2,3-Dihydro-1H-inden-2-yl)-N-((1R,2R)-1-(3-fluoro-4-methoxyphenyl)-1-hydroxy-3-(pyrrolidin-1-yl)propan-2-yl)acetamide] |  |  | 2.7
